Source: US11000505B2 (priority 2010, dated 2021)
Only a part of the results on these compounds is given; other tests are left out.

Test system: pial artery
Assay: Pial artery diameter through closed cranial window (Example 1)

sodium nitroprusside
effect on pial artery (100 pM, sub threshold concentration): had no effects on the pial artery | dilation response in presence of L-NNA (L-NNA 1 μM (NOS inhibitor)): not affected by L-NNA
